Results on one compound are retold here after BindingDB's records for 40068406.

Sequences of proteins named here, by UniProt entry; tags and fusion partners are left off.
UniProt P41145, whole entry: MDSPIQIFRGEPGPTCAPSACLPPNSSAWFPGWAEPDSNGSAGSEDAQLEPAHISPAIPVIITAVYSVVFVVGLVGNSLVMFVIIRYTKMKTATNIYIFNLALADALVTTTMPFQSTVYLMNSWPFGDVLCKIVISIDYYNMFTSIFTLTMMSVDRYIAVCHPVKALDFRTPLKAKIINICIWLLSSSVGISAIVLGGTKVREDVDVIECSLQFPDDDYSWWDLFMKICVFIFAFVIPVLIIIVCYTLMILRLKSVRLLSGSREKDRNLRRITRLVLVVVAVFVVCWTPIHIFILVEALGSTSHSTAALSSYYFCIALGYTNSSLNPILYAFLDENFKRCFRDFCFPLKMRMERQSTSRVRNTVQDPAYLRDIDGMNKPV

This experiment concerns the target Kappa-type opioid receptor (Homo sapiens, UniProt P41145). Put plainly: Binding affinity to KOR (unknown origin) assessed as inhibition constant.

Turning to `COc1ccc2c3c1O[C@H]1[C@@]4(OC)C=C[C@@]5(C[C@@H]4C(=O)c4ccc(NC(=O)c6ccccc6)cc4)[C@@H](C2)N(CC2CC2)CC[C@]315`, the Ki (usually the dissociation constant of the complex between target and ligand, obtained from inhibition or displacement) was greater than 10 µM.
